The numbers were not newly measured in PubChem BioAssay AID493017, which cites them from elsewhere.

What all share (experiment): PubChem AID 493017
For data set [1], the target named is AR. The following applies: WOMBAT literature affinities, multiple human targets, AR, gene AR, NCBI gene 367; for Ki: binding affinity Ki.
For data set [2], the target named is DRD2. The following applies: WOMBAT literature affinities, multiple human targets, D2, gene DRD2, NCBI gene 1813; for Ki: binding affinity Ki.
For data set [3], the target named is SIGMAR1. The settings on record: WOMBAT literature affinities, multiple human targets; binding affinity Ki; sigma; gene SIGMAR1; NCBI gene 10280.
Data set [4] concerns the target SLC6A3. The settings on record: WOMBAT literature affinities, multiple human targets; DAT; gene SLC6A3; NCBI gene 6531.
Data set [5] deals with WOMBAT literature affinities, multiple human targets. The settings on record: binding affinity Ki; HIV-1 P; gene HIV-1 protease.
The target of data set [6] is ADORA1. The settings on record: WOMBAT literature affinities, multiple human targets, A1, gene ADORA1, NCBI gene 134; for Ki: binding affinity Ki.
The target in data set [7] is ACHE. The following applies: WOMBAT literature affinities, multiple human targets; AChE; gene ACHE; NCBI gene 43.
Data set [8] has as its target GABRA1. The settings on record: WOMBAT literature affinities, multiple human targets, GABA-A, gene GABRA1, NCBI gene 2554.
For data set [9], the target named is NK1. The settings on record: WOMBAT literature affinities, multiple human targets, NK1, gene NK1, NCBI gene 6869.
Data set [10] addresses DHFR. The settings on record: WOMBAT literature affinities, multiple human targets, DHFR, gene DHFR, NCBI gene 1719; for Ki: binding affinity Ki.
Data set [11] deals with CCKAR. The following applies: WOMBAT literature affinities, multiple human targets, CCK1, gene CCKAR, NCBI gene 886.
Data set [12] concerns the target PARP1. The settings on record: WOMBAT literature affinities, multiple human targets; PARP1; gene PARP1; NCBI gene 142.
The target of data set [13] is ALOX5. The settings on record: WOMBAT literature affinities, multiple human targets; 5-LOX; gene ALOX5; NCBI gene 240.
Data set [14] has as its target OPRM1. The following applies: WOMBAT literature affinities, multiple human targets; binding affinity Ki; mu; gene OPRM1; NCBI gene 4988.
Data set [15] deals with FNTA. The following applies: WOMBAT literature affinities, multiple human targets; FTase; gene FNTA; NCBI gene 2339.
Data set [16] concerns the target CACNA1C. The settings on record: WOMBAT literature affinities, multiple human targets, Ca(2+) channel, gene CACNA1C, NCBI gene 775; for Ki: binding affinity Ki.
Data set [17] has as its target F2. The settings on record: WOMBAT literature affinities, multiple human targets, thrombin, gene F2, NCBI gene 2147; for Ki: binding affinity Ki.
The target of data set [18] is PTGS2. The following applies: WOMBAT literature affinities, multiple human targets; COX-2; gene PTGS2; NCBI gene 5743.
Data set [19] concerns the target MMP1. The settings on record: WOMBAT literature affinities, multiple human targets; MMP-1; gene MMP1; NCBI gene 4312.
In data set [20] the target is GRIN1. The settings on record: WOMBAT literature affinities, multiple human targets; binding affinity Ki; NMDA; gene GRIN1; NCBI gene 2902.
Data set [21] concerns the target PLAU. The following applies: WOMBAT literature affinities, multiple human targets; uPA; gene PLAU; NCBI gene 5328.
Data set [22] addresses CNR1. The settings on record: WOMBAT literature affinities, multiple human targets; binding affinity Ki; CB1; gene CNR1; NCBI gene 1268.
Data set [23] addresses F10. The following applies: WOMBAT literature affinities, multiple human targets, fXa, gene F10, NCBI gene 2159.
The target in data set [24] is CHRNA. The settings on record: WOMBAT literature affinities, multiple human targets; binding affinity Ki; nAChR; gene CHRNA; NCBI gene 1134.

As to `C[C@@](O)(CSc1ccc(N)cc1)C(=O)Nc1ccc(C#N)c(C(F)(F)F)c1`, the Ki in data set [1] is 0.794 µM.

Turning to `Cc1ccc(N2CCN(Cc3ccc4ccc(=O)oc4c3)CC2)cc1`, the Ki in data set [2] was 5.7 µM.

With `C=CCN1CC[C@]2(C)c3cc(O)ccc3CC1C2C` (stereo not given in full), in data set [3], the Ki was 0.0597 µM.

With `COC(=O)C1C(c2ccc(Cl)cc2)CC2CCC1N2C` (stereo not given), in data set [4], the IC50 was 0.00112 µM.

As to `COc1ccc(S(=O)(=O)N(CC(C)C)CC(O)C(Cc2ccccc2)NC(=O)OC2COC3OCCC23)cc1` (stereo not given), the inhibition constant Ki in data set [5] was 14 µM.

Regarding `O=c1cc(-c2ccccc2)oc2cccc(O)c12`, the inhibitory constant (Ki) in data set [6] was 2.19 µM.

For the compound `CC=C(C)C(=O)NC1CC[C@@]2(C)C(=CCC3C4=CCC(C(C)N(C)C)[C@@]4(C)CCC32)C1=O` (stereo not given in full), the 50% inhibitory concentration (IC50) in data set [7] was 5.8 µM.

In the case of `CCOC(=O)c1cc2c(cn1)[nH]c1ccccc12`, the IC50 in data set [8] was 0.005 µM.

For the compound `CN1CC[C@]2(c3cccc(O)c3)CC(=O)C(=Cc3ccc(Cl)c(Cl)c3)C1C2`, the inhibition constant Ki in data set [3] was 3.2 µM.

For `CCCCC1(Cc2ccccc2)CC(O)=C(C(CC)c2ccccc2)C(=O)O1` (stereo not given), the Ki in data set [5] was 3 µM.

For `Nc1nc(Cl)nc2c1ncn2C1OC(CO)C(O)C1O` (stereo not given), the inhibition constant Ki in data set [6] was 0.0067 µM.

Take `CON=C(CN(C)C(=O)c1ccccc1OC)C(CCN1CCC(O)(c2ccccc2)CC1)c1ccc(Cl)c(Cl)c1` (stereo not given): in data set [9] (binding affinity Ki), the Ki was 58 µM.

In the case of `COc1ccc(Cc2cnc(N)nc2N)cc1`, the inhibition constant Ki in [10] was 51.3 µM.

Turning to `C[C@@]1(O)C(O)C(CO)OC1n1cnc2c(N)ncnc21` (stereo not given in full), the inhibitory constant (Ki) in [6] was 0.74 µM.

In the case of `c1ccc(-c2ncc(CN3CCN(c4ncccn4)CC3)[nH]2)cc1`, the inhibitory constant (Ki) in data set [2] is 2.25 µM.

Turning to `c1ccc2c(c1)[nH]c1c2ccc2[nH]c3ccccc3c21`, the IC50 in data set [8] was 1.92 µM.

Consider `N#Cc1ccc(N2C(=O)C3C(O)CCN3C2=O)cc1` (stereo not given), for which the inhibition constant (Ki) in data set [1] is 0.0032 µM.

As to `CN1C(=O)C(NC(=O)c2ccc(Cl)cc2)N=C(c2ccccc2)c2ccccc21` (stereo not given), the half-maximal inhibitory concentration (IC50) in data set [11] was 0.00832 µM.

In the case of `O=c1[nH]c2cc(CN3CC=C(c4ccccc4)CC3)ccc2c2ccccc12`, in data set [12], the IC50 is 16 µM.

In the case of `CC[C@](OC)(C(=O)OC)c1cc(F)cc(OCc2ccc3ccccc3c2)c1`, the IC50 in data set [13] was 0.124 µM.

Turning to `CN1CC[C@]23c4c5ccc(O)c4OC2c2c(c4c(n2C)CCCC4)C[C@@]3(O)C1C5` (stereo not given in full), the inhibition constant Ki in data set [14] is 0.0252 µM.

With `CC1(c2cccc3ccccc23)C(=O)N(CCCn2ccnc2)C(=O)N1Cc1ccc(CN)cc1` (stereo not given), in data set [15], the IC50 is 2.1 µM.

Regarding `COc1ccc(C2Cc3cc(OC)ccc3N(CCN(C)C)C(=O)C2OC(C)=O)cc1` (stereo not given), the concentration for half-maximal inhibition (IC50) in data set [16] is 1.9 µM.

Take `NC(CCSCc1ccccc1[N+](=O)[O-])C(=O)O` (stereo not given): the Ki in [16] was 1.3 µM.

Consider `CCOC(=O)c1c(C)nc2nc3c(c(N)c2c1-c1ccc(OC)c(OC)c1)CCCC3`, for which the IC50 in [7] is 1.3 µM.

Regarding `CN1CC[C@@]2(C)c3cc(OC(=O)Nc4ccccc4)ccc3N(C)C12` (stereo not given in full), the half-maximal inhibitory concentration (IC50) in [7] was 0.022 µM.

Turning to `NCc1ccc(Cl)cc1CNC(=O)C1CCCN1C(=O)C1(O)c2ccccc2-c2ccccc21` (stereo not given), the inhibitory constant (Ki) in data set [17] was 0.0005 µM.

As for `Nc1cccc2c1CC=NC2=O`, the concentration for half-maximal inhibition (IC50) in data set [12] was 3.55 µM.

For `Cc1ccc(CS(=O)(=O)Nc2ccc(C)n(CC(=O)NC3CCc4nc(N)sc4C3)c2=O)cc1` (stereo not given), the Ki in [17] was 0.1 µM.

In the case of `COC(=O)c1cc2cc(S(C)(=O)=O)ccc2n1Cc1ccc(Br)cc1`, in data set [18], the 50% inhibitory concentration (IC50) was 3.93 µM.

In the case of `O=C(O)CS(=O)(=O)c1ccc(-c2ccccc2)cc1`, in data set [19], the IC50 is 380 µM.

Turning to `Nc1nc(NCCc2ccccc2)nc2c1ncn2C1OC(CO)C(O)C1O` (stereo not given), the half-maximal inhibitory concentration (IC50) in data set [6] was 0.98 µM.

On to `C[C@]1(C(=O)NC(CCC(=O)O)C(=O)O)CCCN1C(=O)CN` (stereo not given in full), for which the inhibitory constant (Ki) in data set [20] is 7.96 µM.

Turning to `COc1ccc(-c2ncc(CN(C)Cc3ccccc3)[nH]2)cc1`, in data set [2], the Ki was 3.47 µM.

On to `CNC(=O)Oc1cccc(CN(C)CCCOc2ccc3c(=O)c4ccccc4oc3c2)c1`, for which the IC50 in [7] was 0.0003 µM.

For the compound `CSCCC(NC(=O)C(N)Cc1c[nH]c2ccccc12)C(=O)NC(CC(=O)O)C(=O)NC(Cc1ccccc1)C(N)=O` (stereo not given), the Kd in data set [11] (binding affinity Kd) is 0.0032 µM.

For the compound `O=C(CCCN1CCC(c2ccc(Cl)cc2)CC1)c1ccc(F)cc1`, the Ki in [2] is 0.0155 µM.

In the case of `CCC(C)N(C)C(=O)c1cc2ccccc2c(-c2ccccc2Cl)n1` (stereo not given), in data set [8] (binding affinity Ki), the Ki was 7.59 µM.

Take `NCCCCCOCC1OC(OCCc2c[nH]c3ccccc23)C(OCc2ccccc2)C(OCc2ccccc2)C1OCc1ccccc1` (stereo not given): the half-inhibitory concentration (IC50) in data set [9] was 0.12 µM.

Regarding `O=c1cc(-c2ccccc2)[nH]c2nc(Br)ccc12`, in [6], the inhibition constant (Ki) was 0.0007 µM.

Take `Nc1nc(N)c2nc(CN3c4ccccc4C=Cc4ccccc43)cnc2n1`: the half-maximal inhibitory concentration (IC50) in data set [10] is 0.21 µM.

Regarding `COC(C)(c1nccs1)c1cccc(OCc2ccc3ccccc3c2)c1C` (stereo not given), the IC50 in data set [13] was 0.03 µM.

As to `C[C@](O)(CS(=O)(=O)c1ccc(NC(=O)CCl)cc1)C(=O)Nc1ccc(C#N)c(C(F)(F)F)c1`, the Ki in [1] is 0.0107 µM.

Regarding `CSCCC(NC(=O)C(Cc1c[nH]c2ccccc12)NC(=O)OC(C)(C)C)C(=O)NC(CC(=O)O)C(=O)NC(Cc1ccccc1)C(N)=O` (stereo not given), in [11], the IC50 is 1.8 µM.

For the compound `Cc1cc(F)ccc1COc1ccc(S(=O)(=O)N2CCCC(C)(O)C2C(=O)NO)cc1` (stereo not given), the IC50 in [19] was 0.01 µM.

Take `COc1cc(Cc2cnc(N)nc2N)ccc1O`: the inhibition constant Ki in data set [10] was 0.0288 µM.

Consider `N=C(N)c1cc2c(C=Cc3ccc4c(c3)OCO4)cccc2s1`, for which the half-inhibitory concentration (IC50) in data set [21] is 0.07 µM.

For `CCCCCn1cc(C(=O)c2cccc3ccccc23)c2ccccc21`, the inhibitory constant (Ki) in [22] is 0.009 µM.

Turning to `COc1cc(Cc2cnc(N)nc2N)ccc1OCc1ccccc1`, the inhibitory constant (Ki) in data set [10] was 0.0295 µM.

For the compound `CN(CCCC(=O)c1ccc(F)cc1)CCCC(O)c1ccc(Cl)cc1` (stereo not given), the Ki in [2] was 0.0263 µM.

As for `O=c1[nH]n(Cc2cccnc2)c(=O)c2c(=O)c3ccc(Cl)cc3[nH]c12`, the Ki in data set [20] was 0.1 µM.

For `CCC(=O)OC1CCC2C3CCC4=CC(=O)CC[C@]4(C)C3CC[C@]12C` (stereo not given in full), the IC50 in data set [1] was 1.91 µM.

Consider `COc1ccc(NC(=O)c2cc(NS(C)(=O)=O)ccc2NC(=O)c2ccc(N(C)C)cc2)cc1`, for which the Kd in data set [23] (binding affinity Kd) was 0.02 µM.

On to `NC(C(=O)O)c1ccc(F)cc1F` (stereo not given), for which, in data set [16], the Ki was 3.5 µM.

Take `Oc1ccc2c(c1)[C@]13CCCCC1C(C2)N(CC1CCC1)CC3` (stereo not given in full): the Ki in data set [14] was 0.06 µM.

Take `CNC(CCOc1ccc([N+](=O)[O-])cc1)c1ccc(OC(=O)N(C)C)cc1` (stereo not given): the concentration for half-maximal inhibition (IC50) in data set [7] was 0.143 µM.

`CCN1CCN=C1Cc1cccnc1`: in data set [24], the inhibition constant (Ki) was 0.15 µM.

For the compound `Cc1cc(OCC2CCN(C(=N)N)CC2)cc(OS(=O)(=O)c2ccccc2Cl)c1`, the Ki in [17] was 0.0046 µM.

On to `N=C(N)c1ccc(CNC(=O)C2CCC3CC[C@@](O)(Cc4ccccc4)C(=O)N32)cc1` (stereo not given in full), for which the IC50 in [17] was 0.02 µM.

Take `O=c1[nH]c2ccccc2c2ccccc12`: the IC50 in data set [12] was 0.34 µM.

Turning to `CC(=C(F)C(=O)Nc1ccc(-c2ccccc2S(N)(=O)=O)cc1)c1cccc(C(=N)N)c1`, in data set [23], the IC50 is 0.001 µM.

On to `CN(CCc1ccc(Cl)c(Cl)c1)C1CCCCC1N1CCCC1` (stereo not given), for which the Ki in [3] was 0.0649 µM.

For the compound `O=C(O)c1n[nH]c2c1CCCC2`, the inhibition constant (Ki) in [24] is 3.54 µM.

With `CC(C)CC(NC(=O)C(Cc1ccccc1)NC(=O)CNC(=O)CNC(=O)C(N)Cc1ccc(O)cc1)C(N)=O` (stereo not given), in data set [14], the Ki was 0.025 µM.

Consider `CN1CCCC(c2cccc(O)c2)C1` (stereo not given), for which the IC50 in data set [2] is 1.95 µM.
